# Laboratory results published in PubChem BioAssay AID1346984 (Tox21, 2019).
# Only a part is listed here, and it is no random draw. Some results for these compounds are left out of this collection, so the calls shown say nothing about other tests. Results filed as inconclusive are left out. Calls of active or inactive are those of the source. Calls come from the whole dose curve; as a rule, active = well fitted activation curve with a large enough effect in the repeat runs; inconclusive = weak or mixed curves; inactive = no such curve, though single readings can be large or run the other way.
# Biological target: Nuclear receptor subfamily 1 group I member 2 (Homo sapiens) (UniProt O75469)
# Assay: CYP3A4 induction through human pregnane X receptor (PXR) by small molecules, qHTS assay; note: nearly all actives have a fitted effect of over 40% in size
# Details: DPX-2 HepG2 PXR, CYP3A4-luciferin luminescence, 24 h; at 46.1 µM (top of the series)
# Text: National Center for Advancing Translational Sciences [NCATS]
# NIH Chemical Genomics Center [NCGC]
# U.S. Environmental Protection Agency [EPA]
# National Institutes of Environmental Health Sciences [NIEHS]
# National Toxicology Program [NTP]
# The Pregnane X receptor (PXR), a ligand activated nuclear receptor plays a critical role in the regulation of genes involved in drug metabolism and transporters. Activation of PXR is responsible for unwanted adverse drug reactions. PXR binds xenobiotics and when compounds interact with PXR enhances the expression of CYP3A genes. Identifying the compounds with the potential for PXR activation and CYP3A4 induction can be of importance in improving the efficacy of drugs with less toxicity and avoiding drug-drug interactions.
# DPX-2 (Puracyp, Inc.) cell lines, used for screening against human PXR activation has HepG2 cells co-transfected with a PXR response element and a luciferase construct containing CYP3A4 promoter. […]
# DPX-2 cells were dispensed at 2,000 cells per well in 5uL of assay medium into white, solid-bottom 1536-well plates using a Multidrop Combi dispenser (Thermo Scientific). […] Then 5ul One-Glo assay reagent (Promega) was added to each plate by an FRD and following 30 min incubation at room temperature, luciferase activity was quantified on a ViewLux plate reader (Perkin Elmer).
# % is set by controls: 0 for no effect and ±100 for the full control effect.
row,Structure (SMILES),activation
1,CN1CCCC(OC(=O)C(O)(c2ccccc2)c2ccccc2)C1 (stereo unspecified),inactive: 18.5%
